## Ab-14 light chain CDR variants: yeast mating affinities

The target is the same throughout: PDVDLGDISGINAS, from the HR2 region of SARS-CoV-2 spike.

Ab-14 is the parent antibody, in scFv form: VH, then a 15-residue (Gly4Ser)3 linker, then VL. The heavy chain is unchanged in all variants.
VH: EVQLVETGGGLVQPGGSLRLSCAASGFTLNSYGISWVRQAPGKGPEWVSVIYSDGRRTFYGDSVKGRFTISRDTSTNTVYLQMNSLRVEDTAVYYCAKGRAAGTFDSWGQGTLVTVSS
VL: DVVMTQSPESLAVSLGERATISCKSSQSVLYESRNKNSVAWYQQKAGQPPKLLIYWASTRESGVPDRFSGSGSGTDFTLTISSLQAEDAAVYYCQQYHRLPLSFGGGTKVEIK

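The starting antibody came from a phage panning campaign against this peptide. The library (AAYL50) carries one to three amino acid substitutions per variant, with no insertions or deletions. The scFvs were displayed on barcoded MATa yeast, the peptide on MATalpha yeast. Binding brings cells together so that they mate, and sequencing counts the barcode pairs among the diploids. A regression on co-assayed BCL2-family reference pairs converts the normalised counts of each replicate to an apparent Kd. There are three technical replicates.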

Changes read parent residue, position, new residue, counted from the first residue of the VL shown. Affinities are written as log10 Kd with Kd in nM; a lower number is a better binder. A mean of the replicates is given; it leaves out those without a signal. A pair that was not seen in that replicate is written "ND"; this usually means weak binding, but a binder can also be missed.

| changes | log10 Kd, replicates | mean log10 Kd (nM) | control signals |
|---|---|---|---|
| W56A R60Y Q96W | 4.27 / 5.09 / 4.49 | 4.62 | 3/9 (4.11) |
| K24S V29Y R60F | ND / ND / ND | ND | 1/9 (4.47) |
| S26F L30G L100G | ND / ND / ND | ND | 1/9 (3.43) |
| V29R S62K P101N | ND / ND / ND | ND | 0/9 |
| S26E N35W H98R | 1.24 / 1.67 / 1.49 | 1.47 | 0/9 |
| S26F S28D S33D | ND / 1.82 / 3.15 | 2.48 | 1/9 (3.23) |
| K24V S58C P101W | 3.42 / ND / ND | 3.42 | 2/9 (5.66) |
| S25D Q27K T59A | 1.73 / 1.72 / 1.80 | 1.75 | 4/9 (3.87) |
| S26R S58H S103F | 1.58 / 1.51 / 1.48 | 1.52 | 1/9 (4.02) |
| S38A Y97T L100I | 3.94 / 3.88 / 4.40 | 4.07 | 1/9 (3.08) |
| Y31K Q95P H98V | 3.63 / ND / ND | 3.63 | 0/9 |
| S38D W56R | 0.50 / 0.70 / 0.74 | 0.64 | 1/9 (3.59) |
| E32H T59P E61W | 3.94 / 3.75 / ND | 3.84 | 2/9 (4.67) |
| N37V S62A Q96E | ND / ND / ND | ND | 3/9 (4.31) |
| V29R V39P L102I | ND / 4.17 / ND | 4.17 | 5/9 (3.81) |
| V39S A57S P101D | ND / ND / ND | ND | 1/9 (4.29) |
| L30S Y31W E32Y | 0.88 / 1.05 / 0.92 | 0.95 | 1/9 (3.60) |
| R34W A57C | ND / ND / 3.09 | 3.09 | 1/9 (4.04) |
| S28M Q96M R99A | 2.98 / 2.07 / 2.27 | 2.44 | 5/9 (4.84) |
| K24I S28Q T59N | ND / 2.54 / ND | 2.54 | 1/9 (5.29) |
| K24W S26G Y31D | 0.99 / 0.97 / 1.01 | 0.99 | 6/9 (4.38) |
| S33W W56P T59S | ND / ND / ND | ND | 0/9 |
| S28Q N37V S38R | ND / ND / ND | ND | 3/9 (4.47) |
| N35G R60D Y97S | ND / ND / ND | ND | 3/9 (3.77) |
| S26T Q95D | ND / ND / ND | ND | 3/9 (3.72) |
| S26G S38K L100V | ND / ND / ND | ND | 1/9 (4.85) |
| Q27G S62A L100C | 0.97 / 1.18 / 1.24 | 1.13 | 1/9 (4.05) |
| R60S R99N | ND / ND / 2.73 | 2.73 | 2/9 (4.65) |
| S33Q L102V | 2.12 / 2.12 / 2.56 | 2.27 | 0/9 |
| S25K R60T Y97N | ND / ND / ND | ND | 1/9 (3.27) |
| A40E T59F | ND / ND / ND | ND | 4/9 (4.14) |
| E32H N37S | 3.08 / 2.18 / ND | 2.63 | 0/9 |
| Q27R R99S | 0.97 / 1.26 / 1.72 | 1.32 | 0/9 |
| S25A T59D Y97P | ND / ND / ND | ND | 1/9 (2.04) |
| S26D T59Q H98S | 0.21 / 0.52 / 0.33 | 0.35 | 1/9 (4.56) |
| Y31G V39G T59Y | 5.32 / ND / ND | 5.32 | 0/9 |
| S28H N35C Q95V | ND / 3.94 / ND | 3.94 | 1/9 (3.94) |
| V29F N35A N37V | 2.32 / ND / 2.17 | 2.25 | 1/9 (3.68) |

In this assay the parent's reference entry averaged 0.65; its copy inside this library read 1.68. Background: pairings of library AAYL50 with three empty control strains gave a value in 18% of cases (median 4.19, 5th percentile 2.99). Values in that range, when seen in few replicates, are hard to tell from nonspecific mating. The control count says in how many pairings with the empty strains this scFv gave a signal, with their mean in brackets.

Data: MIT Lincoln Laboratory AlphaSeq set, Engelhart et al. 2022, doi:10.1038/s41597-022-01779-4, as distributed in FLAb.